This passage reports Ki results from BindingDB's records for doi:10.1016/0006-291x(92)90654-4 (Veterans Affairs Medical Center, 1992).

Protein sequences, listed by entry. Tags and fused reporters are not part of them.
UniProt P28222, whole entry: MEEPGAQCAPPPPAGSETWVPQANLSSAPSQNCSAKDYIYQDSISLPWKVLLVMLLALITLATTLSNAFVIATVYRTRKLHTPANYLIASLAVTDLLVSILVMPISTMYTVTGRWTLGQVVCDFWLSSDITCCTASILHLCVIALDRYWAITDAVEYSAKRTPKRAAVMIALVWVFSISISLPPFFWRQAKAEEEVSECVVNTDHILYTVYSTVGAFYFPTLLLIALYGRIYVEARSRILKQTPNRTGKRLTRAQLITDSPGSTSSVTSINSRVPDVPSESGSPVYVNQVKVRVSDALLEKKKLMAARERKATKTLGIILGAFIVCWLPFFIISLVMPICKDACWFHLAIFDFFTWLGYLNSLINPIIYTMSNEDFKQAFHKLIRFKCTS

The experiment has as its target 5-hydroxytryptamine receptor 1B (Homo sapiens, UniProt P28222).

In general, Ki refers to a dissociation constant, usually derived from enzyme kinetics or from competition with a known ligand. A low value points to a stronger hold on the target. Take `COC(=O)[C@@H]1[C@H]2C[C@H]3c4[nH]c5ccccc5c4CCN3C[C@@H]2CC[C@@H]1O` [yohimbic acid methyl ester]: the inhibition constant Ki was determined as 5 nM.

`CC(C)NC[C@H](O)COc1cccc2ccccc12` [Propanolol,(+/-)] came in with a Ki of 640 nM.
